Data: ChEMBL document CHEMBL3399931, “Reversible and irreversible small molecule inhibitors of monoamine oxidase B (MAO-B) investigated by biophysical techniques” (Bioorg Med Chem, 2015)

Amino acid sequences for entries named in this document (tags omitted).
UniProt P27338, whole entry: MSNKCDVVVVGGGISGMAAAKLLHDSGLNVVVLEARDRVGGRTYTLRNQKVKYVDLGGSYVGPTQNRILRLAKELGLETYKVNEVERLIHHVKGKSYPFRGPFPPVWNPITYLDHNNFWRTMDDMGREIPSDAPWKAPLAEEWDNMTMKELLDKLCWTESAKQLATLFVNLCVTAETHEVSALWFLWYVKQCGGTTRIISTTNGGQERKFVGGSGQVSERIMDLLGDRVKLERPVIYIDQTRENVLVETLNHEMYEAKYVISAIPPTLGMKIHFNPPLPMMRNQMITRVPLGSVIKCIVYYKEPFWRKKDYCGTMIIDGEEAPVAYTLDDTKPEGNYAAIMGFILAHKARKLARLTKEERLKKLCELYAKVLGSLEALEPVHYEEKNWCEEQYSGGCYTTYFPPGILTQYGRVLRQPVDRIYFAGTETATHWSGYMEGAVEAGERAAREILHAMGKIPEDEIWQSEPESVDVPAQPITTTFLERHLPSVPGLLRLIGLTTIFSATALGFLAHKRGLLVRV

Legend:
[1] = target: T1, Amine oxidase [flavin-containing] B (Homo sapiens, UniProt P27338); test: Inhibition of human recombinant soluble MAO-B expressed in Pichia pastoris incubated for 30 mins prior to substrate addition measured after 60 mins by MAO-Glo assay
[2] = target: T1, Amine oxidase [flavin-containing] B; test: Inhibition of human recombinant soluble MAO-B assessed as change in melting temperature at 100 uM after 20 mins by SYPRO orange staining-based fluorescence assay
Procedure, shortened: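 Soluble human MAO-B was expressed in Pichia pastoris and desalted into PBS pH 7.5 to remove detergent; final concentration 3.4 µM. It was preincubated with serial compound dilutions (0.5–10 µM or 1.7–100 µM) for 20 min at 4 °C in 10% DMSO. 1x SYPRO orange was then added and samples ramped 25–80 °C at 1 °C/s. Boltzmann Tm was taken from the ~50–70 °C region, and ΔTm = Tm(compound) − Tm(DMSO only).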

- Ki [1]: 94 nM
- Activity [2]: Not Active
Structure (SMILES): NNCCc1ccccc1 [PHENELZINE]
